Apparent affinities of Ab-14 variants for a coronavirus HR2 peptide

Reference: Li et al. 2023, doi:10.1038/s41467-023-39022-2. File: FLAb, binding data.

Target peptide (SARS-CoV-2 spike, HR2 region): PDVDLGDISGINAS

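The starting antibody came from a phage panning campaign against this peptide. Designed CDR sequences, proposed from the first random library and measured here. Their group label is 14H_En_HC (En: ensemble of fine-tuned language models; HC: hill climbing; a sequence that several methods proposed may carry one label only). In AlphaSeq, yeast of one mating type display the scFv and yeast of the other type display the target. After mating in shaken culture at 30 °C for 16 h, diploids were selected and their barcode pairs sequenced. Read counts were normalised to the haploid input and turned into Kd by a linear fit to BCL2-family pairs of known affinity, for each replicate. Mating was done six times.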

Ab-14 is the parent antibody, in scFv form: VH, then a (GGGGS)3 linker, then VL. The light chain is unchanged in all variants.
VH: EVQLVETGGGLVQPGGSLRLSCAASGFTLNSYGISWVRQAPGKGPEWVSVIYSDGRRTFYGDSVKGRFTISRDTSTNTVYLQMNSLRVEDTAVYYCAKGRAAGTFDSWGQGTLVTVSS
VL: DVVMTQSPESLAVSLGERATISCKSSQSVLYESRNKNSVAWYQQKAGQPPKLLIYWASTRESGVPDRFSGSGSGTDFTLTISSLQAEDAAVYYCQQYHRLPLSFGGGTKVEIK

The parent's heavy chain CDRs are GFTLNSYGIS, VIYSDGRRTFYGDSVK, GRAAGTFDS; each variant's own CDRs replace them letter for letter.
Scale: log10 of Kd in nM, estimated from mating counts; low values are strong binders.
Replicates are averaged; those with no signal do not enter the mean.
An entry "ND" has no value in the source: the pair was not observed among the diploids in that replicate. This suggests poor binding but is not conclusive.
Of ten entries with the parent sequence, four were seen in most replicates (averages 0.34 to 2.37), three in one and three in none, so single entries are noisy.
The authors averaged sequences with at least three values out of six and counted those with two or fewer as poor binders.
Values of this round are not directly comparable with the first-round values of the same sequences.
Three control strains display no target. For all heavy chain designs, 1% of the pairings with them gave a signal, with a median of 2.08 and one signal in twenty below 0.84, so weak values seen in few replicates may be background. For each scFv, signals with the empty controls are counted beside the result, with their mean in brackets.

| CDR-H1 | CDR-H2 | CDR-H3 | replicates, log10 nM | mean, log10 nM | control signals |
|---|---|---|---|---|---|
| GFDLNEYGIS | VIYADGRRTFYADSVK | GNNAGTFLS | 1.35 2.18 2.21 2.09 1.79 2.84 | 2.08 | 1/18 (3.66) |
| GFTLDEYGIS | VIYADGRRTFYADSVK | GNQAGTFDQ | -0.30 -0.43 -0.11 -0.52 -0.32 -0.23 | -0.32 | 0/18 |
| GFDLNEYGIS | VIYADGSRTFYSDSVK | GNNAGTFDS | 0.13 -0.30 -0.50 -0.22 -0.29 0.43 | -0.13 | 0/18 |
| GFDLNEYGIS | VIYADGMRTFYTDSVK | GQLAGTFDF | 0.24 -0.52 -0.98 -0.55 0.21 -0.32 | -0.32 | 0/18 |
| GFDLNEYGIS | VIYADGRRTFYVDSVK | GVNAGTFDS | -0.32 -0.42 -0.30 -0.48 -0.42 -0.17 | -0.35 | 0/18 |
| GFDLNEYGIS | VIYADGRRTFYADSVK | GNQGGTFDL | 0.38 0.22 0.47 0.61 0.80 0.51 | 0.50 | 0/18 |
| GFDLNEYGIS | VIYADGLRTSYADSVK | GQNAGTFDV | 0.24 -0.32 -0.11 -0.10 0.32 -0.13 | -0.02 | 1/18 (1.00) |
| GFDLNEYGIS | VIYADGRRTFYSDSVK | GANGGTFDM | -0.32 -0.71 -0.97 -0.82 -1.02 -0.42 | -0.71 | 1/18 (1.25) |
| GFDLNEYGIS | VIYADGRRTFYADSVK | GQNGGTFDV | 0.30 0.17 -0.09 0.26 0.04 0.49 | 0.19 | 0/18 |
| GFNLEDYGIS | VIYADGRRTFYADSVK | GKVAGTFDV | -0.43 -0.46 -0.36 -0.69 -0.49 -0.43 | -0.48 | 1/18 (2.68) |
| GFDLNEYGIS | VIYADGRRTAYSDSVK | GGNAGTFDD | 0.08 -0.08 -0.04 -0.41 -0.49 -0.22 | -0.19 | 0/18 |
| GFDLNEYGIS | VIYADGRRTFYADSVK | GTTAGTFDQ | -0.42 -0.47 -0.39 -0.91 -0.56 -0.05 | -0.46 | 1/18 (1.48) |
| GFDLNEYGIS | VIYADGRRTFYSDSVK | GEVAGTFVQ | -0.01 -0.30 -0.11 -0.30 -0.35 -0.21 | -0.21 | 0/18 |
| GFDLNDYGIS | VIYADGRRTAYIDSVK | GEVAGTFDN | -0.55 -0.47 -0.65 -0.36 -1.02 -0.75 | -0.63 | 0/18 |
| GFDLNEYGIS | VIYADGMRTFYTDSVK | GEFAGTFDK | -0.67 -1.38 -0.25 -0.32 -1.05 -0.98 | -0.78 | 0/18 |
| GFNLDEYGIS | VIYADGMRTFYSDNVK | GEVAGTFDI | -0.42 -0.89 -0.89 -0.76 -0.94 -0.60 | -0.75 | 0/18 |
| GFDLNEYGIS | VIYADGVRTFYADSVK | GNLAGTFDQ | -0.25 -0.32 -0.57 -0.64 -0.54 -0.77 | -0.52 | 1/18 (1.31) |
| GFDLEDYGIS | VIYADGRRTAYIDSVK | GEEAGTFDV | -0.37 -0.01 -0.57 -0.53 0.14 -0.21 | -0.26 | 0/18 |
| GFELDEYGIS | VIYADGRRTFYADSVK | GEAAGTFDI | -0.20 -0.21 -0.43 -0.30 -0.47 -0.28 | -0.31 | 0/18 |
| GFDLNEYGIS | VIYADGRRTFYADSVK | GSTAGTFDM | -1.08 -1.17 -1.33 -1.39 -1.13 -0.89 | -1.17 | 0/18 |
| GFDLDEYGIS | VIYADGMRTFYADSVK | GNIAGTFVS | -0.37 -0.50 -0.54 -0.54 -0.62 -0.41 | -0.50 | 0/18 |
| GFDLNEYGIS | VIYADGVRTFYSDSVK | GENAGFFDV | ND ND ND ND ND ND | ND | 0/18 |
| GFDLNEYGIS | VIYADGRRTFYTDSVK | GQVAGTFNV | -0.65 -1.19 -0.91 -0.72 -0.72 -0.72 | -0.82 | 0/18 |
| GFDLNEYGIS | VIYADGKRTFYADSVK | GQLAGTFDS | -0.68 -0.24 -0.34 -0.30 0.58 -0.36 | -0.23 | 0/18 |
| GFNLNEYGIS | VIYADGRRTFYSDSVK | GETGGTFDV | ND ND ND ND ND 1.86 | 1.86 | 0/18 |
| GFDLNEYGIS | VIYADGLRTFYSDSVK | GQSAGTFDA | -0.22 -0.08 -0.36 -0.30 -0.42 -0.26 | -0.27 | 1/18 (2.43) |
| GFDLNEYGIS | VIYADGRRTFYADSVK | GQLAGTFDQ | -0.09 0.10 -0.30 -0.57 -1.12 -0.70 | -0.45 | 0/18 |
| GFDLNEYGIS | VIYADGQRTFYTDSVK | GQLAGTFDV | 1.49 ND 1.06 0.56 0.25 0.66 | 0.80 | 0/18 |
| GFDLNEYGIS | VIYADGRRTFYADSVK | GENAGTFLV | 1.46 ND 2.01 1.48 2.70 1.79 | 1.89 | 1/18 (1.49) |
| GFDLNEYGIS | VIYADGKRTFYSDNVK | GNVAGTFDI | -0.35 -0.46 -0.57 -0.84 -0.74 -0.56 | -0.59 | 0/18 |
| GFNLDEYGIS | VIYADGRRTFYVDSVK | GEVAGTFDF | -0.09 -0.36 -0.23 -0.20 -0.54 0.04 | -0.23 | 0/18 |